These are literature values, as cited in patent US20110246079A1, “INDIVIDUAL 5-FLUOROURACILE DOSE OPTIMIZATION IN FOLFOX TREATMENT” (Centre Regional De Lutte Contre, priority 2008, published 2011).

The series has as its system 5-FU metabolism. To be noted: in vivo.

For `O=C1[O][Pt]2([NH][C@@H]3CCCC[C@H]3[NH]2)[O]C1=O` [oxaliplatin], the induced toxicities result was “diarrhea and leucopenia”.
